Experimental data from paper PMC11904993, “Humanized Candida and NanoBiT Assays Expedite Discovery of Bdf1 Bromodomain Inhibitors With Antifungal Potential” (Advanced Science, 2025).

Target: human Brd4 BD1 (Homo sapiens, UniProt O60885)
Assay: HTRF assay, inhibition of H4ac4 peptide binding
Conditions: Fig 1D/2A original data; single experiments Exp1-3

Row | SMILES | pIC50 hBrd4 BD1
1 | CCC(C)NC(=O)Nc1cc2c(cc1Oc1ccccc1)n(C)c(=O)n2C (stereo not drawn) | 4.586 and 4.698 and 4.714
2 | CCCN(CC1CC1)C(=O)C1C(c2cc(OC)c(OC)c(OC)c2)c2cc3c(cc2C(O)C1CO)OCO3 (stereo not drawn) | ≤ 4
3 | CC(=O)N1CCc2[nH]c3ccc(C(=O)Nc4ccc(N5CCOCC5)cc4)cc3c2C1 | 5.537 and 5.532 and 5.633

“And” between values parts separate entries of the source, which are not always exact repeats. Equal entries are not always repeated.
